Reference: ChEMBL document CHEMBL5154675, “Design, Synthesis, and Biological Evaluation of 1-(Indolizin-3-yl)ethan-1-ones as CBP Bromodomain Inhibitors for the Treatment of Prostate Cancer” (J Med Chem, 2022)

Assay: Apparent permeability across basolateral to apical side in human Caco-2 cells at 10 uM measured after 2 hrs by LC-MS/MS analysis
Type: ADME, cell-based

Q: With C[C@H]1O[C@@H](O[C@H]2[C@@H](O)C[C@H](O[C@H]3[C@@H](O)C[C@H](O[C@H]4CC[C@@]5(C)[C@H](CC[C@@H]6[C@@H]5C[C@@H](O)[C@]5(C)[C@@H](C7=CC(=O)OC7)CC[C@]65O)C4)O[C@@H]3C)O[C@@H]2C)C[C@H](O)[C@@H]1O [DIGOXIN] as the compound, how does the Papp B→A at 2 h, 10 µM read?
A: 13.9 ×10⁻⁶ cm/s
